Test [1] concerns the target hNLRP3 inflammasome (Homo sapiens, UniProt Q96P20). Description: Agonistic effect on the expression of IL-1β in THP-1 cells after PMA-induced differentiation (HTRF). The test is classed as cell-based. To be noted: read-out: hNLRP3 EC50 (μM) (THP-1); IL-1β level, PMA-differentiated THP-1 cells, 6 hours. From the text: Experimental Example 1: Agonistic Effect of the Compound of the Invention on the Expression of IL-1β in THP-1 Cells after PMA-Induced Differentiation
In this test, a HTRF (homogeneous time-resolved fluorescence) detection method was used to test the effect of the compound of the invention on the level of downstream cytokine IL-1β of NLRP3 to evaluate the agonistic effect of the compound on hNLRP3 inflammasome or hNLRP3 inflammasome pathway at a cellular level.
Reagent: RPMI 1640 (Hyclone); heat-inactivated FBS (fetal bovine serum) (Gibco); PMA (phorbol myristal acetate) (Beyotime)
Kit: IL-1β assay kit (CISIO)
1) THP-1 cells in a logarithmic growth phase were seeded in a T75 culture flask at a density of 5×10^5 cells/well, and cultured in a cell incubator at 37° C., 5% CO2 for 24 hours, and then 1 μM PMA was used to induce THP-1 suspension cells to become adherent macrophages. The medium was RPMI 1640 containing 10% heat-inactivated FBS and 0.05 mM β-mercaptoethanol.
2) The cells were induced and cultured for 24 hours. […]
3) An appropriate amount of 10 mM DMSO solution of the compound to be tested was taken and diluted to a concentration of 2× test concentration with RPMI 1640 medium containing 2% heat-inactivated FBS. […] The supernatant was collected, and the level of IL-1β was measured in accordance with the instructions of the IL-1β detection kit. […]

The chains behind the UniProt entries cited, without tags or fusion partners. Residues count along the entry.
UniProt Q96P20, whole entry: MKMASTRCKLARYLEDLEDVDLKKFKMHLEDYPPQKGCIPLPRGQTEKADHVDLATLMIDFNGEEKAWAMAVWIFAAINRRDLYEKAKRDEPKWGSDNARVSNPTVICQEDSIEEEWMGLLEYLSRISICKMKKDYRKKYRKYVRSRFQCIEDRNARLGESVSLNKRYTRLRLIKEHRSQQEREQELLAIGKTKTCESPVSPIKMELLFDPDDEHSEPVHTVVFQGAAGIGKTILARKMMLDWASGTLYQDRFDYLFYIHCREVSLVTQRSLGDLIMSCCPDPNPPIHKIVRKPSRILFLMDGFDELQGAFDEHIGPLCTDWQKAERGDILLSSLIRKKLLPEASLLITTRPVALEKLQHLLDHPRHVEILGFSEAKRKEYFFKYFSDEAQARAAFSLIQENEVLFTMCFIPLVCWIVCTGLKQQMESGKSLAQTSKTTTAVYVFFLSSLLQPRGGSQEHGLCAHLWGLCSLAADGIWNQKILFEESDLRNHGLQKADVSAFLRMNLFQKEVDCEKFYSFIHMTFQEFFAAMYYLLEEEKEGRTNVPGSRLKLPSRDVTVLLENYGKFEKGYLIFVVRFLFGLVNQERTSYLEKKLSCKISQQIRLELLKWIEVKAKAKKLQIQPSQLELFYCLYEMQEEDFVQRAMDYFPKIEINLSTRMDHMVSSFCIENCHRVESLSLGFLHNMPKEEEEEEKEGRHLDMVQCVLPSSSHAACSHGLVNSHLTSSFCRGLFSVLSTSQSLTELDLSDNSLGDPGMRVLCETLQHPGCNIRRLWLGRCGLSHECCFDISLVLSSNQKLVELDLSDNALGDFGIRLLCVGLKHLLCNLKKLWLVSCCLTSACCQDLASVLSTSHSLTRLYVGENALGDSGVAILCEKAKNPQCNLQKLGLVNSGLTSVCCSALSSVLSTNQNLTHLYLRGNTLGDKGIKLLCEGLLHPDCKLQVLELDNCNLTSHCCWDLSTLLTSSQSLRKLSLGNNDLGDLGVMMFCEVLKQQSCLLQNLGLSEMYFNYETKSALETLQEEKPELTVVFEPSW
UniProt Q9NYK1, 27-1049 limits assumed: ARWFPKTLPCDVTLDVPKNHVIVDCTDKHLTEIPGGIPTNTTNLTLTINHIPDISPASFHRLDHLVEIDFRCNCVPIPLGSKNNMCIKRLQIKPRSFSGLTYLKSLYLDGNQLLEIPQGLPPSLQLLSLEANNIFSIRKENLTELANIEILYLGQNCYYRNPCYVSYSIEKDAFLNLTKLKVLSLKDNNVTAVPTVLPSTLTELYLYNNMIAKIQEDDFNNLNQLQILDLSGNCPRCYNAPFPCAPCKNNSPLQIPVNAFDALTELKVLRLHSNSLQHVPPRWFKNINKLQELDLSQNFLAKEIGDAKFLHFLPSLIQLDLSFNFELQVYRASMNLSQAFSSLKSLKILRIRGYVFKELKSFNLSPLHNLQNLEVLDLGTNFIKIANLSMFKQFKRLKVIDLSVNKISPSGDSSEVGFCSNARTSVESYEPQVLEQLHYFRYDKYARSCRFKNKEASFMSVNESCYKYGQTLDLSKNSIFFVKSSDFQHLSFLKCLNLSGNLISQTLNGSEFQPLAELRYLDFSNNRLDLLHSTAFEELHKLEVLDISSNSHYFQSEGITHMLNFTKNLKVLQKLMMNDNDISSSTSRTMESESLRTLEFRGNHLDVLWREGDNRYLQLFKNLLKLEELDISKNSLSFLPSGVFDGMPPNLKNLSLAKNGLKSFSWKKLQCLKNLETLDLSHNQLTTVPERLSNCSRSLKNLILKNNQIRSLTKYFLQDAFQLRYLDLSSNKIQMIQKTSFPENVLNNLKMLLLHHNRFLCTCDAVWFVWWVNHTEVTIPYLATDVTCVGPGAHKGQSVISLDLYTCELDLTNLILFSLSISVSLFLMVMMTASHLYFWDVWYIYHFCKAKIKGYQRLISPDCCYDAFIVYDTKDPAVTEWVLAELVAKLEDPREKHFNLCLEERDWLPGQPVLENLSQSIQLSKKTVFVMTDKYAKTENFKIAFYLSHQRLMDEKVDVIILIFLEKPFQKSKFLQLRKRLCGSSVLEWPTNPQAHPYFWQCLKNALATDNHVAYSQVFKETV
UniProt Q9NR97, 27-1041 limits assumed: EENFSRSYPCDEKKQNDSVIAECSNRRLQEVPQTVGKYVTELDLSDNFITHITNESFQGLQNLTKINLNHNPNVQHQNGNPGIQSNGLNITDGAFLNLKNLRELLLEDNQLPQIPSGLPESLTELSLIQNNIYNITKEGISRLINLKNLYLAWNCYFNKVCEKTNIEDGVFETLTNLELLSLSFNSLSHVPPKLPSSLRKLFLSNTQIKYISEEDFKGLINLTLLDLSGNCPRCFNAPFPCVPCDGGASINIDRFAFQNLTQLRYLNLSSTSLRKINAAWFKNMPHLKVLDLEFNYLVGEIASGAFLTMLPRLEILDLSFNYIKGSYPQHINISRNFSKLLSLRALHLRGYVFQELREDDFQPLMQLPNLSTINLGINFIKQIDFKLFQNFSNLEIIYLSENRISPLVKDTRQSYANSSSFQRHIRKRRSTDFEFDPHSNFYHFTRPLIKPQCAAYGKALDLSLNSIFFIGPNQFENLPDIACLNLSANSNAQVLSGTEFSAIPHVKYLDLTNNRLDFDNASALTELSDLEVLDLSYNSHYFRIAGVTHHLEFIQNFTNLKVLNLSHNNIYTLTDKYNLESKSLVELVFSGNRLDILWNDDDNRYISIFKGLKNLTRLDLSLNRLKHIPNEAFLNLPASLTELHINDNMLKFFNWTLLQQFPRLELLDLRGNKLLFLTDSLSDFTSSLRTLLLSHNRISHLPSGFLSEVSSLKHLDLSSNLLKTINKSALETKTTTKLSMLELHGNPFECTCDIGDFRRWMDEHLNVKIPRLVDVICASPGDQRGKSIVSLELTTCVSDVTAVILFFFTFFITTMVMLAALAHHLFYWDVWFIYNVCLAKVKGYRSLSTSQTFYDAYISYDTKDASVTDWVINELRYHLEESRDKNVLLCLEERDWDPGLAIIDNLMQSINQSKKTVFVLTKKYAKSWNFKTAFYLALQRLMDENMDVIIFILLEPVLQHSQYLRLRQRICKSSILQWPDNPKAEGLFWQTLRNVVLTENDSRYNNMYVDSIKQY

The test system of test [2] is THP1-defNLRP3 cells. Description: Agonistic effect on the expression of IL-1β in NLRP3 deficient THP1 cells (THP1-defNLRP3) after PMA-induced differentiation (HTRF). The note with it: read-out: hNLRP3 EC50 (μM) (THP-1defNLRP3); IL-1β level, PMA-differentiated NLRP3 deficient THP1 cells, 6 hours; highest test concentration 30 μM.
For test [3], the target named is hTLR7 (Homo sapiens, UniProt Q9NYK1). Description: Agonistic effect on hTLR7, HEK-hTLR7-NF-κB-Luciferase reporter cells. The note with it: read-out: hTLR7 EC50, 16 hours.
Test [4] concerns the target hTLR8 (Homo sapiens, UniProt Q9NR97). Description: Agonistic effect on hTLR8, HEK-Blue hTLR8 cells, alkaline phosphatase secretion. The note with it: read-out: hTLR8 EC50, 16 hours.

Turning to `Nc1cc(NCC2CCCO2)c2sc(-c3ccn[nH]3)cc2n1` (single isomer, unassigned), the EC50 in test [1] is 0.01 µM; in test [2], above 30 µM; in test [3] it was above 100 µM; in test [4], above 100 µM.

Values taken from patent US20220056043A1, “NITROGEN-CONTAINING FUSED CYCLIC COMPOUND, PREPARATION METHOD THEREFOR AND USE THEREOF” (SICHUAN KELUN-BIOTECH BIOPHARMACEUTICAL CO., LTD., priority 2019, published 2022).
